In PubChem BioAssay (NCI):
Only a part is listed here, and it is no random draw.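 48-hour exposure, single concentration, 96-well plates; percent growth endpoint where 0 means no net growth. Active: below 10.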 The source made the active and inactive calls.

How the values were obtained:
Experiment in all cases: NCI-60 one-dose screen, 48 h (100 = growth as untreated, 0 = no growth, -100 = all killed)
Details in all cases: 10 µM unless noted
[1] = tested on: SK-MEL-2 melanoma
[2] = tested on: EKVX NSCLC
[3] = tested on: SN12C renal
[4] = tested on: UO-31 renal
[5] = tested on: TK-10 renal
[6] = tested on: ACHN renal
[7] = tested on: CAKI-1 renal
[8] = tested on: A498 renal
[9] = tested on: HL-60(TB) leukemia
[10] = tested on: CCRF-CEM leukemia

Measured: growth

O=C(CBr)c1ccc([N+](=O)[O-])cc1
inactive: [1] 108% | [2] 111% | [3] 95.7% | [4] 65.1% | [5] 83% | [6] 105% | [7] 102% | [8] 96.3% | [9] 85.4% | [10] 92.6%

Nc1cccc2ccc([As](=O)(O)O)cc12
inactive: [1] 112% | [2] 108% | [3] 108% | [4] 90.7% | [5] 103% | [6] 99.6% | [7] 93.7% | [9] 124% | [10] 101%

CCOC(=O)N1CCN(CCCl)CC1
inactive: [1] 102% | [2] 91.9% | [3] 107% | [4] 91% | [5] 100% | [6] 106% | [7] 91.3% | [8] 94.5% | [9] 119% | [10] 118%

CN(CCCl)/N=N/c1nc2c([nH]1)c(=O)n(C)c(=O)n2C
inactive: [1] 88.2% | [2] 100% | [3] 103% | [4] 94.7% | [5] 80% | [6] 108% | [8] 104% | [9] 74.1% | [10] 104%

CCCC1OP(=O)(Nc2ccccc2)OCC1CC (centres undefined)
inactive: [1] 101% | [2] 104% | [3] 99.5% | [5] 95.5% | [6] 98.3% | [7] 90.5% | [8] 87.9% | [9] 107% | [10] 101%

O=C1OP(=O)(Cl)Oc2ccccc21 (centres undefined)
inactive: [1] 105% | [2] 107% | [3] 97.1% | [4] 95% | [5] 95.5% | [6] 112% | [8] 86.9% | [9] 84.5% | [10] 99.4%

CN(CCCl)/N=N/c1nc2nc[nH]c(=O)c2[nH]1
inactive: [1] 102% | [2] 98.4% | [3] 110% | [4] 91% | [5] 95.6% | [6] 99.5% | [8] 100% | [9] 86.3% | [10] 101%

[N-]=[N+]=NC(=O)c1cccc([N+](=O)[O-])c1
inactive: [1] 89.2% | [2] 61.7% | [3] 82.3% | [4] 59% | [5] 83% | [6] 39.5% | [7] 70.9% | [9] 54.9% | [10] 59.9%
